Results taken from US20130216543A1.

Target: EGFRvIII on U87-derived transfected cells (UniProt P00533)
Test: cell-based or functional assay

BS28-HC (bispecific antibody)
downregulation of total (wild type plus mutant) surface EGFR on U87-derived cell lines: 60 to 80%
